Experimental findings from article PMC4730229, “Benzobisthiazoles Represent a Novel Scaffold for Kinase Inhibitors of CLK Family Members” (Biochemistry, 2015) are described below.

The test has as its target T1, Dyrk1A (Homo sapiens, UniProt Q13627).
T1 construct: purchased Invitrogen PV3785
Kind of test: Kinase inhibition assay, IC50. The format is biochemical. The procedure:
A small molecule inhibitor library consisting of 1600 compounds was obtained from LIFE Chemicals (Kiev, Ukraine). These compounds are part of the CUTE kinase collection that was predicted by in silico profiling against a panel of targets and includes potent kinase inhibitor compounds.[16] Compounds were dissolved as 10 mM stocks in DMSO and stored at room temperature, in the presence of 5% humidity and 5% oxygen in the dark in a Roylan Storage Pod system. Compounds were dispensed into white 384-well plates using the Labcyte Echo520 instrument at a final concentration of 10 μM. Next, 5 μL of 144.92 nM purified GST-CLK2cd in kinase assay buffer A was added to the compounds, incubated for 10 min at room temperature prior to addition of 5 μL of a 2 μM ATP/10 μM S6K peptide mixture, and incubated again for 60 min at room temperature. Subsequently, 10 μL of Kinase-Glo was added to the wells, and the plates were analyzed after 10 min on the Envision II multilabel plate reader (PerkinElmer). […] The percentage of inhibition is equal to 100 – [(total ATP before assay – remaining ATP in assay with compound)/(total ATP before assay – remaining ATP in assay with DMSO) × 100]. […] NR9 was obtained from Enzo Life Sciences (catalog no. ALX-270-463-M001). […]

Usually IC50 stands for the midpoint of a concentration-inhibition curve. `O=C1N=C(NCc2cccs2)S/C1=C\c1ccc2ncccc2c1` [NR9, (5Z)-5-(quinolin-6-ylmethylidene)-2-[(thiophen-2-ylmethyl)amino]-1,3-thiazol-4(5H)-one] registered an IC50 of 0.596 µM. This lies in the sub-micromolar range.
